Reference: ChEMBL document CHEMBL5260804, “Affinity of Rimantadine Enantiomers against Influenza A/M2 Protein Revisited” (ACS Med Chem Lett, 2017)

Amino acid sequences for entries named in this document (tags omitted).
UniProt P06821, whole entry: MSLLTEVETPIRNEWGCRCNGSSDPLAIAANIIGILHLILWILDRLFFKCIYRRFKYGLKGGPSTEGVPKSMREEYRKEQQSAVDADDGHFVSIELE

Target: Matrix protein 2 (Influenza A virus) (UniProt P06821)
Details: A/Udorn/72 (H3N2)

Compound | deltaG [kcal/mol]
C[C@H](N)C12CC3CC(CC(C3)C1)C2 | -8.88
CC(N)C12CC3CC(CC(C3)C1)C2 (racemic) [RIMANTADINE] | -8.64
